# Melting point values, as collected for the OPERA models

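OPERA's authors assembled the values from existing databases and did not measure them anew. A listed value is a point estimate from one report or more. Conditions of the individual experiments are not part of the data. The measured form (salt, isomer or mixture) is not always the one drawn. Some entries may be limits or estimates that an upstream database listed as plain numbers.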

Melting points are in °C.
Cells with "–" have no entry in this list.
The databases behind each value are named after "via".

structure (SMILES),name,MP (°C),via
COc1ccc2oc(C(=O)O)c(C)c2c1,5-Methoxy-3-methyl-benzofuran-2-carboxylic acid,203,OCHEM
CCCCCCCCCCCCOC(=O)CCCCCCCC,Dodecyl nonan-1-oate,15.2,eChemPortal
CCN(Cc1ccccc1)c1ccc(C=O)cc1,4-[Benzyl(ethyl)amino]benzaldehyde,40,OCHEM
CC(C)OC(=O)N[C@H](C(=O)N[C@H](C)c1nc2ccc(F)cc2s1)C(C)C,Benthiavalicarb-isopropyl,160,"OCHEM, PubChem"
CCOc1cc(C=O)ccc1OCc1c(Cl)cccc1Cl,"4-[(2,6-dichlorobenzyl)oxy]-3-ethoxybenzaldehyde",116,OCHEM
CCCCCCCCCCOS(=O)(=O)[O-].CCCCCCCCCCOS(=O)(=O)[O-].[Zn+2],Zinc dodecyl sulfate (1:2),144,eChemPortal
COc1ccc(OC(=O)c2ccc(OCCCCC3CO3)cc2)cc1 (stereo not drawn),4-Methoxyphenyl 4-(4-(2-oxiranyl)butoxy)benzoate,78,eChemPortal
Cc1cc(Br)cc(C)c1C#N,"4-bromo-2,6-dimethylbenzonitrile",69,OCHEM
Cc1ccc2c(C)cc(Cl)nc2c1,"2-chloro-4,7-dimethylquinoline",50,OCHEM
CC(=O)C(N=Nc1ccc(-c2ccc(N=NC(C(C)=O)C(=O)Nc3ccccc3)c(Cl)c2)cc1Cl)C(=O)Nc1ccccc1 (stereo not drawn),C.I. Pigment Yellow 12,320,"OCHEM, eChemPortal"
Cc1cccc(NC(=O)CCCCl)c1,4-chloro-N-(3-methylphenyl)butanamide,138,OCHEM
O=C(O)c1ccc(-c2ccccc2F)o1,5-(2-fluorophenyl)-2-furoic acid,174,OCHEM
NCC1(Nc2ccccc2)CCCCC1,N-[1-(Aminomethyl)cyclohexyl]aniline,62,OCHEM
CC(O)c1cc(Cl)ccc1Cl (stereo not drawn),–,62,OCHEM
Cc1cc(C(=O)O)c(C)n1-c1ccccc1,"2,5-dimethyl-1-phenyl-1h-pyrrole-3-carboxylic acid",214,OCHEM
O=C(Nc1ccccc1C(=O)O)c1ccccc1,N-Benzoylanthranilic acid,180,OCHEM
CSc1nn(-c2ccccc2)c(N)c1C#N,–,136,OCHEM
N=c1sccn1CC(=O)O,–,245,OCHEM
CCOc1cc(Br)c([N+](=O)[O-])cc1OCC,"1-bromo-4,5-diethoxy-2-nitrobenzene",63,OCHEM
CCCCc1nnc(N)o1,"5-Butyl-1,3,4-oxadiazol-2-amine",140,OCHEM
Cc1ccc(C23CC4CC(CC(C(=O)O)(C4)C2)C3)cc1,3-(4-Methylphenyl)adamantane-1-carboxylic acid,175,OCHEM
COc1ccc2oc(C)c(C(=O)O)c2c1,5-Methoxy-2-methyl-benzofuran-3-carboxylic acid,210,OCHEM
CC(CCN(CCC(C)CC(C)(C)C)C(=S)[S-])CC(C)(C)C.CC(CCN(CCC(C)CC(C)(C)C)C(=S)[S-])CC(C)(C)C.[Zn+2] (stereo not drawn),"Zinc bis[bis(3,5,5-trimethylhexyl)carbamodithioate]",84.69,eChemPortal
Cc1cc(C)n(CCO)n1,"2-(3,5-Dimethyl-1H-pyrazol-1-yl)ethan-1-ol",75,OCHEM
CCCOc1ccc([C@H]2CC[C@H]([C@H]3CC[C@H](CCC)CC3)CC2)c(F)c1F,–,170,eChemPortal
Cc1nc(Cl)c2c(-c3ccccc3)csc2n1,"4-chloro-2-methyl-5-phenylthieno[2,3-d]pyrimidine",171,OCHEM
Cl.O=C(CCCN1CCC(O)(c2cccc(C(F)(F)F)c2)CC1)c1ccc(F)cc1,Trifluperidol hydrochloride,212,OCHEM
O=C(O)CNC(=O)C1CCCCC1,Hexahydrohippurate,155,OCHEM
O=C(O)C1(c2cccc(Br)c2)CC1,1-(3-Bromophenyl)cyclopropane-1-carboxylic acid,144,OCHEM
CCCCCCCCCCCC(=O)OCC(C)(C)C=NCCOCCO,–,-16.48,eChemPortal

Repeated from above, the 3 entries with the highest MP:

| structure (SMILES) | name | MP (°C) | via |
|---|---|---|---|
| CC(=O)C(N=Nc1ccc(-c2ccc(N=NC(C(C)=O)C(=O)Nc3ccccc3)c(Cl)c2)cc1Cl)C(=O)Nc1ccccc1 (stereo not drawn) | C.I. Pigment Yellow 12 | 320 | OCHEM, eChemPortal |
| N=c1sccn1CC(=O)O | – | 245 | OCHEM |
| Cc1cc(C(=O)O)c(C)n1-c1ccccc1 | 2,5-dimethyl-1-phenyl-1h-pyrrole-3-carboxylic acid | 214 | OCHEM |

Data: OPERA 2.9 data sets, kmansouri/OPERA on GitHub.